Results: US8299089B2, “Multi-arm polymeric conjugates of 7-ethyl-10-hydroxycamptothecin for treatment of breast, colorectal, pancreatic, ovarian and lung cancers” (priority 2006, dated 2012)

Columns and labels:
Format in all cases: in vivo
[1] = Maximum tolerated dose (MTD) in nude mice
[2] = Pharmacokinetics in tumor free Balb/C mice; conditions: single injection 20 mg/kg; analyte intact conjugate
Experimental: Tumor free Balb/C mice were injected with a single injection of 20 mg/kg 4armPEG-Gly-(7-ethyl-10-hydroxycamptothecin) conjugates. At various time points mice were sacrificed and plasma was analyzed for intact conjugates and released 7-ethyl-10-hydroxycamptothecin by HPLC. Pharmacokinetic analysis was done using non-compartmental analysis (WinNonlin).

Pharmacokinetics in rats = conditions: parent compound
Experimental: Additionally, pharmacokinetic profiles of 4arm PEG-Gly-(7-ethyl-10-hydroxycamptothecin) were investigated in rats. In rats, does levels of 3, 10 and 30 mg/kg (7-ethyl-10-hydroxycamptothecin equivalent) were used. The pharmacokinetic profiles in rats were consistent with those of mice.
Enterohepatic circulation of released 7-ethyl-10-hydroxycamptothecin was observed both in mice and rats.

With “^40k4arm-PEG-Gly(20)-(7-ethyl-10-hydroxycamptothecin) [Compound 9]” the MTD ([1]; multiple dose (q2d×5)) was 10 mg/kg, the MTD ([1]; single dose) was 30 mg/kg and the Cmax [2] was 20,500 μg/mL. The “Terminal t1/2” value [2] was 19.3 h, the Vss [2] was 0.131 L/kg and the clearance (Pharmacokinetics in rats) was 8.4 mL/day/kg. The “volume of distribution at steady state (Vss)” value (Pharmacokinetics in rats; estimated) was 0.00549 L/kg.
